Reference: publication PMC5926424 (Japanese Journal of Cancer Research : Gann, 2000)

Tested on: T.Tn cells
Format: cell-based
Conditions: 50 μg/ml ATX-S10(Na), 24 h

Substance: HSA: human serum albumin, purchased human plasma protein
- Effect of plasma protein on cellular uptake of ATX-S10(Na): inhibited
